Experimental data as given in US12180192B2, “Modulators of THR-β and methods of use thereof” (ALIGOS THERAPEUTICS, INC., priority 2019, dated 2024).

By UniProt entry, the sequences of proteins in these tests, tags left out. Residues count along the entry.
UniProt P10827, 1-410 isoform 2: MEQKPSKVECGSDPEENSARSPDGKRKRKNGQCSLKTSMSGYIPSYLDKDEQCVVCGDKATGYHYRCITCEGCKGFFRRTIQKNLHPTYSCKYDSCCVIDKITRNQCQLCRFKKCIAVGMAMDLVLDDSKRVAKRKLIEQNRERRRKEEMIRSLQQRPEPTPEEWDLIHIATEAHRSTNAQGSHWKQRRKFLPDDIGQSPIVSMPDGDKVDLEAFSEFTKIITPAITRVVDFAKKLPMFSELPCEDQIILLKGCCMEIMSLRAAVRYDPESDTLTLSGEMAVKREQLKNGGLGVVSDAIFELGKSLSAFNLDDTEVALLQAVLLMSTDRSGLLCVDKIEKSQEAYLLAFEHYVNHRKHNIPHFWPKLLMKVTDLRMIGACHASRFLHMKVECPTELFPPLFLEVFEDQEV
UniProt P10827, 163-410 isoform 2 limits assumed: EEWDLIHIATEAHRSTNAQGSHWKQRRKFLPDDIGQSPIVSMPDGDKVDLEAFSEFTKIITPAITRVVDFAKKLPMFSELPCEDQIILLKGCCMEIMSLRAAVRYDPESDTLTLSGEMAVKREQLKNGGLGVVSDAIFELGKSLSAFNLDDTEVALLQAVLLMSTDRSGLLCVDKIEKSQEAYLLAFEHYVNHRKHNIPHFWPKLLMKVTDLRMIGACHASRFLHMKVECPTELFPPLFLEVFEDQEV
UniProt P10828, whole entry: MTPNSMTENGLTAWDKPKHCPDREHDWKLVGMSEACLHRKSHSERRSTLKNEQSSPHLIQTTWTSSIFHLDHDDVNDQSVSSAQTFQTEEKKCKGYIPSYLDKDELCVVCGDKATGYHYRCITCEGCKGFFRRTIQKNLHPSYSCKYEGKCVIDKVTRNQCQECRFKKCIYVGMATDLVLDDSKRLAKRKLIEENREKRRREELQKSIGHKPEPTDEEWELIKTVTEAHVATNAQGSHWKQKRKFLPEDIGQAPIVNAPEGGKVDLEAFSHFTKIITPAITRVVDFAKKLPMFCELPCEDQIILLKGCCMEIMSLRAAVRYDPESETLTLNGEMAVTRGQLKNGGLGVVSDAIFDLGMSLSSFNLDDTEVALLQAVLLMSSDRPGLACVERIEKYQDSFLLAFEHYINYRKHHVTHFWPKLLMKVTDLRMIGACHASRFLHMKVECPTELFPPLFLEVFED
UniProt P10828, 217-461 limits assumed: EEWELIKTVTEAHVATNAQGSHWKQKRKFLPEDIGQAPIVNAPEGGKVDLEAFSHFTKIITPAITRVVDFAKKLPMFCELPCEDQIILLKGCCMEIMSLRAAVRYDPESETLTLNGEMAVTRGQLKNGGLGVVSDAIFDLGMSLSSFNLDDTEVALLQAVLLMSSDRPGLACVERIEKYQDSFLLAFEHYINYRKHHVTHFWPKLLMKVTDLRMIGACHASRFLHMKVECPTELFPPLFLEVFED
UniProt P19793, whole entry partner: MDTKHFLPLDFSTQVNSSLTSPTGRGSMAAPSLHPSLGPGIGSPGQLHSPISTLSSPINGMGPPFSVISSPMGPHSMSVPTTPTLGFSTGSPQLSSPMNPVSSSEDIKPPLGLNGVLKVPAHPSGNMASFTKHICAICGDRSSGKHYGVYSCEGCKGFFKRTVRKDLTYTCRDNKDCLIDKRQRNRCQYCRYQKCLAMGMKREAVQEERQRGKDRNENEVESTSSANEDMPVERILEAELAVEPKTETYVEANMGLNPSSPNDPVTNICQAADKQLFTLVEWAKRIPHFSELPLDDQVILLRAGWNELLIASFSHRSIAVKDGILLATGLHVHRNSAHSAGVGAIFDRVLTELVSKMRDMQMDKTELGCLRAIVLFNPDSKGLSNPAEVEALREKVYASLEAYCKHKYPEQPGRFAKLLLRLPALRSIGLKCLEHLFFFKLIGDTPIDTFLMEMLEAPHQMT

Assays:
THR alpha = THR alpha (Homo sapiens, UniProt P10827); assay: HEK293T THR alpha/RXR luciferase reporter assay (Assay 2); format: cell-based
[1] = target: human thyroid receptor beta ligand-binding domain (LBD) (Homo sapiens, UniProt P10828); assay: TR-FRET thyroid receptor beta coactivator assay (THR biochemical assay, Assay 1)
THR beta = THR beta (Homo sapiens, UniProt P10828); assay: HEK293T THR beta/RXR luciferase reporter assay (Assay 2); format: cell-based
[2] = target: human thyroid receptor alpha ligand-binding domain (LBD) (Homo sapiens, UniProt P10827); assay: TR-FRET thyroid receptor alpha coactivator assay (THR biochemical assay, Assay 1)

Activity category Assay 2 THRα (Emax) (THR alpha; Table 5, THRα): B (Emax≥50%, and <75%) | EC50 (THR alpha; read-out: Activity category Assay 2 (EC50, THR-alpha agonist activity), Table 4, THR-alpha): 50 to 250 nM | Activity category Assay 1 THRβ (Emax) ([1]; Table 5, Assay 1, THRβ): C (Emax<50%) | EC50 ([1]; read-out: Activity category Assay 1 (EC50, THR-beta agonist), THR-beta, TR-FRET coactivator assay): < 50 nM | Activity category Assay 2 THRβ (Emax) (THR beta; Table 5, Assay 2, THRβ): A (Emax≥75%) | EC50 (THR beta; read-out: Activity category Assay 2 (EC50, THR-beta agonist), THR-beta, HEK293T reporter assay): < 50 nM | Activity category Assay 1 THRα (Emax) ([2]; Table 5, THRα): C (Emax<50%) | EC50 ([2]; read-out: Activity category Assay 1 (EC50, THR-alpha agonist activity), Table 4, THR-alpha): 50 to 250 nM
Structure (SMILES): CC(C)C1(c2cc(Oc3c(Cl)cc(-n4nc(N)c(=O)[nH]c4=O)cc3Cl)n[nH]c2=O)CC1
